Drawing on ChEMBL document CHEMBL1125327, “Conformationally restricted deltorphin analogues” (J Med Chem, 1992), this text covers IC50 for 2 molecules.

Chains of the proteins cited; added tags and fusions are not shown.
UniProt P32300, whole entry: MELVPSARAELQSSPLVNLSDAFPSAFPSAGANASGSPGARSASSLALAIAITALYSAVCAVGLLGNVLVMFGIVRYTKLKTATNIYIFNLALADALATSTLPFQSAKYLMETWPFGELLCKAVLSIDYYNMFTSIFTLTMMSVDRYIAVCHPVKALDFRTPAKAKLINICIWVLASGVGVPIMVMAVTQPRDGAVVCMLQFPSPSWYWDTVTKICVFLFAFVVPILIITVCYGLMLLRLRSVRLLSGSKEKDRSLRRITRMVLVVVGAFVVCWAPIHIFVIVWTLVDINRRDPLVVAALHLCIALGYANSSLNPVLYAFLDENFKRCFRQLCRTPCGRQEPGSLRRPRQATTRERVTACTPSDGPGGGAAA

Molecules are shown by their SMILES.

The target in the experiment is Delta-type opioid receptor (Mus musculus, UniProt P32300). As to the kind of experiment: Inhibition of electrically evoked contractions in mouse vas deferens. The class given is functional.

For orientation: IC50 means the concentration that gives 50% inhibition.

For the molecule `CC(C)[C@H](NC(=O)[C@H](CC(=O)O)NC(=O)[C@@H](Cc1ccccc1)NC(=O)[C@@H](C)NC(=O)[C@@H](N)Cc1ccc(O)cc1)C(=O)N[C@H](C(=O)NCC(N)=O)C(C)C`, the concentration for half-maximal inhibition (IC50) is 42.7 nM.

`CC(C)[C@H](NC(=O)[C@H](CC(=O)O)NC(=O)[C@H](Cc1ccccc1)NC(=O)[C@@H](C)NC(=O)[C@@H](N)Cc1ccc(O)cc1)C(=O)N[C@H](C(=O)NCC(N)=O)C(C)C` [DELTORPHIN C] gave an IC50 of 0.147 nM.
